Laboratory results reported in patent US6599892B2, “7-alkylidene cephalosporanic acid derivatives and methods of using the same” (Research Corporation Technologies, Inc., priority 1994, dated 2003).

Target: E. coli. W3310 β-lactamase (TEM2) (Escherichia coli, UniProt P62593, Q37K)
Conditions: read-out: IC50 (nM) E. Coli WC3310; 10 minute incubation of enzyme and inhibitor; nitrocefin substrate

Sodium salt of 7-[(Z)-t-butoxymethylene] cephalosporanic acid sulfone [Compound 7g]
IC50: 5 nM
